Results on 25 molecules are retold here after PubChem BioAssay AID1974 (The Scripps Research Institute Molecular Screening Center, 2009).

By UniProt entry, the sequences of proteins in these tests, tags left out.
UniProt P78417, whole entry: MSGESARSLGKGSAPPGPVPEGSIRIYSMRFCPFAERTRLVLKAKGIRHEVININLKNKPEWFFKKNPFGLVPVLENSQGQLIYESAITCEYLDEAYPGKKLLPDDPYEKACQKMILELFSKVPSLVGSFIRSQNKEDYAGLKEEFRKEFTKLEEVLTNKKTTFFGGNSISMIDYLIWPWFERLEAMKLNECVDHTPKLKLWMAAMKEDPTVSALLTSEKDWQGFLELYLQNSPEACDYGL

Each structure is given as a SMILES string. Only a part is listed here, and it is no random draw. Active and inactive are the calls of the source.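 How the source made its calls: active means inhibition above the campaign mean inhibition plus 3 SD (cut at about 35% in these data); inactive means the rest.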

In this test the target is Glutathione S-transferase omega-1 (Homo sapiens) (UniProt P78417). Nature of the test: human GSTO1 enzyme inhibition – biochemical, fluorescence polarization, counter-screen for RBBP9 inhibitor project, primary screen (AID 1974).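 Further: 0% = GSTO1-1 with DMSO and 100% = wells lacking GSTO1-1 enzyme.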 To be noted: recombinant GSTO1, activity-based probe fluorescence polarization; at 5.96 µM; active compounds read high. (Fluorescence polarisation rises when a labelled molecule tumbles more slowly, as on binding a larger partner.)
Take `Cc1ccc(NP(C)(=O)Oc2ccccc2)c(C)c1` (stereo not given): the inhibition is inactive: 1.04%. As for `COc1ccccc1OP(C)(=O)Nc1ccc(C)cc1` (stereo not given), the inhibition is inactive: 2.67%. As for `Cc1cccc(C)c1OP(C)(N)=O` (stereo not given), the inhibition is inactive: -4.63%. With `CC(C)(C)c1ccc(OP(C)(=O)Nc2ccc(SC(F)(F)F)cc2)cc1` (stereo not given), the inhibition was inactive: 2.54%. Take `O=[N+]([O-])c1ccc2c(c1)C=Nc1ccccc1O2`: the inhibition was inactive: 1.07%.

Take `O=[N+]([O-])c1cc([N+](=O)[O-])c(Nc2cccnc2)c([N+](=O)[O-])c1`: the inhibition is active: 40.2%. Consider `CCN(CC)CCCOC(=O)C(O)(c1ccccc1)c1ccccc1`, for which the inhibition was inactive: 2.3%. Regarding `CP(=O)(Nc1cccc(Br)c1)Oc1ccccc1` (stereo not given), the inhibition is inactive: 7.7%.

Take `Cc1cc(C)cc(OP(C)(=O)Nc2ccccn2)c1` (stereo not given): the inhibition was inactive: 2.1%.

Regarding `Cc1ccc(C)c(NP(C)(=O)Oc2ccccc2)c1` (stereo not given), the inhibition is inactive: 11.3%. As to `Cc1cc(C)cc(OP(C)(=O)Nc2ccc(C)cc2C)c1` (stereo not given), the inhibition was inactive: -6.67%. On to `CCOC(=O)c1ccc(NP(C)(=O)Oc2cc(C)cc(C)c2)cc1` (stereo not given), for which the inhibition was inactive: 3.57%. As for `COc1ccccc1OP(C)(=O)Nc1cccc(Br)c1` (stereo not given), the inhibition is inactive: -2.77%. Turning to `CC1=NCCc2c1[nH]c1ccccc21.O=[N+]([O-])c1cc([N+](=O)[O-])c(O)c([N+](=O)[O-])c1`, the inhibition is inactive: 0.94%. `O=C(O)c1cccc(Nc2c([N+](=O)[O-])cc([N+](=O)[O-])cc2[N+](=O)[O-])c1`: the inhibition was active: 37.3%. As for `CP(=O)(Nc1ccc(SC(F)(F)F)cc1)Oc1ccccc1` (stereo not given), the figure is inactive: 9.61%; as for `CCCOc1ccc(NP(C)(=O)Oc2ccc(Cl)cc2)cc1` (stereo not given), inactive: -4.66%. `CN1CCCCC1COC(=O)C1(O)c2ccccc2CCc2ccccc21` (stereo not given): the inhibition is inactive: 1.73%. For `COc1ccccc1OP(C)(=O)Nc1c(C)cccc1C` (stereo not given), the inhibition was inactive: 3.72%. For `CCOC(=O)C(CC)C1=NC(C)(C)Cc2ccccc21.O=[N+]([O-])c1cc([N+](=O)[O-])c(O)c([N+](=O)[O-])c1` (stereo not given) the value was inactive: 11.2%; for `O=[N+]([O-])c1cc([N+](=O)[O-])c(Nc2nnnn2CCO)c([N+](=O)[O-])c1`, inactive: 8.63%. In the case of `CC1=C2N=C(C=C3N=C(C(C)=C4[N-][C@@](C)([C@@H]5N=C1[C@](C)(CCC(=O)NC[C@@H](C)OP(=O)([O-])O[C@H]1[C@@H](O)[C@@H](n6cnc7cc(C)c(C)cc76)O[C@@H]1CO)[C@H]5CC(N)=O)[C@@](C)(CC(N)=O)[C@@H]4CCC(N)=O)[C@@](C)(CC(N)=O)[C@@H]3CCC(N)=O)C(C)(C)[C@@H]2CCC(N)=O.[C-]#N.[Co+3]`, the inhibition is active: 77.1%.

For the molecule `Cc1nc2ccc3ccccc3c2s1.O=[N+]([O-])c1cc([N+](=O)[O-])c(O)c([N+](=O)[O-])c1`, the inhibition was inactive: -10.3%. For the molecule `O=[N+]([O-])c1cc([N+](=O)[O-])c(-c2cnn(-c3ccccc3)c2)c([N+](=O)[O-])c1`, the inhibition was inactive: 6.15%. For the molecule `O=[N+]([O-])c1cc([N+](=O)[O-])c(-n2nnc3ccccc32)c([N+](=O)[O-])c1`, the inhibition is inactive: -6.04%.

What is called inhibition is the change of the read-out against control, counted positive when it falls.
